The chains behind the UniProt entries cited, without tags or fusion partners.
UniProt Q99640, whole entry: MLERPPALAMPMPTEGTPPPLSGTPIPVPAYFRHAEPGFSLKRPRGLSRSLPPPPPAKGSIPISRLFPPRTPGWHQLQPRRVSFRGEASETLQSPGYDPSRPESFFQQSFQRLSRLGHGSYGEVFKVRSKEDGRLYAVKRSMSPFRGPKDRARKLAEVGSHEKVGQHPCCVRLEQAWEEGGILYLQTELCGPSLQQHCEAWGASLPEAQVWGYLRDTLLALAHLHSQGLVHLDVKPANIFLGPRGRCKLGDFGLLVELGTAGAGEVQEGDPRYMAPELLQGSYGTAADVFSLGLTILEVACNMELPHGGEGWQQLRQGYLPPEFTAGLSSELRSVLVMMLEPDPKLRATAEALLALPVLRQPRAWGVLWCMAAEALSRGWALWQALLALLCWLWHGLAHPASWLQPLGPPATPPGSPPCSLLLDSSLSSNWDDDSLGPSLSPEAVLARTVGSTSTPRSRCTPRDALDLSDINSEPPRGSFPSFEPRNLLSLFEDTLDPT

According to patent US20230348456A1, “QUINAZOLINONES, PHARMACEUTICAL COMPOSITIONS CONTAINING THE SAME, AND METHODS OF USING THE SAME” (Repare Therapeutics Inc., priority 2022, published 2023):

Target: recombinant human Myt1 (Homo sapiens (Human), UniProt Q99640)
Test: Myt1 enzymatic assay (ADP-Glo kinase assay)
Conditions: read-out: Myt1 IC50, recombinant human Myt1 18 nM, ATP 10 μM

Compound	IC50
CO[C@H](C)COc1cccc(-c2cc(-c3cccc4[nH]ncc34)c(N)c3c(=O)[nH]c(-c4ccncc4)nc23)n1	3 nM
Nc1c(-c2cccc3[nH]ncc23)cc(-c2nccs2)c2nc(-c3nccs3)[nH]c(=O)c12	11 nM
